From patent publication US7867980B2, “Lincosamide derivatives and antimicrobial agents comprising the same as active ingredient” (Meiji Seika Kaisha, Ltd., priority 2007, dated 2011)
≈ marks a conversion by molar mass, not a printed value.

Legend:
Assay in all cases: Antimicrobial activity, minimum growth inhibitory concentration (MIC), agar dilution
Format in all cases: cell-based
[1] = tested on: S. pneumoniae 1820; conditions: Streptococcus pneumoniae, 1820, read-out: minimum growth inhibitory concentration (MIC)
Method: (§1) For representative compounds among lincomycin derivatives according to the present invention, the minimum growth inhibitory concentration (MIC, μg/ml) against various pneumococci was measured according to the method described in CHEMOTHERAPY, vol. […] Sensitivity disk agar-N+5% horse blood was used as the medium for the measurement. The amount of bacteria inoculated was about 10^6 CFU/ml.

[2] = tested on: S. pneumoniae PRC-206; conditions: Streptococcus pneumoniae, PRC206, read-out: minimum growth inhibitory concentration (MIC)
Method: as §1

[3] = tested on: S. pneumoniae 1700; conditions: Streptococcus pneumoniae, 1700, read-out: minimum growth inhibitory concentration (MIC)
Method: as §1

[4] = tested on: S. pneumoniae PRC-53; conditions: Streptococcus pneumoniae, PRC53, read-out: minimum growth inhibitory concentration (MIC)
Method: as §1

[5] = tested on: S. pneumoniae 1913; conditions: Streptococcus pneumoniae, 1913, read-out: minimum growth inhibitory concentration (MIC)
Method: as §1

[6] = tested on: S. pneumoniae DP1 TypeI; conditions: Streptococcus pneumoniae, DP1TYPEI, read-out: minimum growth inhibitory concentration (MIC)
Method: as §1

[7] = tested on: S. pneumoniae IP692; conditions: Streptococcus pneumoniae, IP692, read-out: minimum growth inhibitory concentration (MIC)
Method: as §1

[8] = tested on: S. pneumoniae TH-662; conditions: Streptococcus pneumoniae, TH662, read-out: minimum growth inhibitory concentration (MIC)
Method: as §1

[9] = tested on: S. pneumoniae 225; conditions: Streptococcus pneumoniae, 225, read-out: minimum growth inhibitory concentration (MIC)
Method: as §1

## CCC[C@@H]1C[C@@H](C(=O)N[C@@H]([C@H]2O[C@H](SC)[C@H](O)[C@@H](O)[C@H]2O)[C@H](C)Cl)N(C)C1 [CLDM, clindamycin, reference compound]
[1]
  MIC: 256 µg/mL (≈ 602 µM)
[2]
  MIC: 256 µg/mL (≈ 602 µM)
[3]
  MIC: 256 µg/mL (≈ 602 µM)
[4]
  MIC: 0.03 µg/mL (≈ 0.0706 µM)
[5]
  MIC: 0.13 µg/mL (≈ 0.306 µM)
[6]
  MIC: 0.13 µg/mL (≈ 0.306 µM)
[7]
  MIC: 0.13 µg/mL (≈ 0.306 µM)
[8]
  MIC: 256 µg/mL (≈ 602 µM)
[9]
  MIC: 256 µg/mL (≈ 602 µM)
